Experiment [1] addresses hCA II (Homo sapiens, UniProt P00918). Description: CA-catalysed CO2 hydration stopped-flow inhibition assay, hCA II. Particulars: read-out: Ki (nM) hCA II, mean ± standard error, three assays.
The target of experiment [2] is hCA I (Homo sapiens, UniProt P00915). Briefly: CA-catalysed CO2 hydration stopped-flow inhibition assay, hCA I.
The mark [3] stands for this setting: read-out: Ki (nM) hCA I, stopped-flow CO2 hydration, mean ± standard error, three assays.

By UniProt entry, the sequences of proteins in these tests, tags left out. Where a name states a change or a piece, a line headed by the entry shows the natural chain unless it says otherwise.
UniProt P00915: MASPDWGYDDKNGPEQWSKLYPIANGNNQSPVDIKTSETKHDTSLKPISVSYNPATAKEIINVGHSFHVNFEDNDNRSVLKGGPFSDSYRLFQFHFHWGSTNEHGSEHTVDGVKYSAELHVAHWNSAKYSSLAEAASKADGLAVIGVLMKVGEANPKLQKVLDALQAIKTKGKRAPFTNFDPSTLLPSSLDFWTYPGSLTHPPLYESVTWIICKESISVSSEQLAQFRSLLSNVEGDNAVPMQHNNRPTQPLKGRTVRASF

Structures are written as SMILES. Like-named read-outs stand apart in the source and are kept apart here.

On to `NS(=O)(=O)c1ccc(CN2C(=O)c3c(Cl)c(Cl)c(Cl)c(Cl)c3C2=O)cc1` [Compound 7, 4-((4,5,6,7-Tetrachloro-1,3-dioxoisoindolin-2-yl) Methyl) Benzenesulphonamide], for which the inhibitory constant (Ki) (commonly a measure of affinity in units of concentration, obtained from inhibition or displacement) in experiment [1] was 5.2 ± 0.4 nM; in experiment [2] (setting [3]), 427 ± 31 nM.
For `NS(=O)(=O)c1cccc(N2C(=O)c3c(Cl)c(Cl)c(Cl)c(Cl)c3C2=O)c1` [Compound 9, 3-(4,5,6,7-tetrachloro-1,3-dioxoisoindolin-2-yl) benzenesulphonamide], the inhibition constant (Ki) in experiment [2] (setting [3]) turned out to be 444 ± 35 nM.
Take `NS(=O)(=O)c1ccccc1N1C(=O)c2c(Cl)c(Cl)c(Cl)c(Cl)c2C1=O` [Compound 10, 2-(4,5,6,7-tetrachloro-1,3-dioxoisoindolin-2-yl) benzenesulphonamide]: the Ki in experiment [1] was 4520 ± 325 nM.
As to `NS(=O)(=O)c1ccc(N2C(=O)c3c(Cl)c(Cl)c(Cl)c(Cl)c3C2=O)c(F)c1` [Compound 11, 3-fluoro-4-(4,5,6,7-tetrachloro-1,3-dioxoisoindolin-2-yl) benzenesulphonamide], the Ki amounted to 3.4 ± 0.2 nM in experiment [1] and 368 ± 15 nM in experiment [2] (setting [3]).
Consider `NS(=O)(=O)c1ccc(N2C(=O)c3c(Cl)c(Cl)c(Cl)c(Cl)c3C2=O)c(Cl)c1` [Compound 12, 3-chloro-4-(4,5,6,7-tetrachloro-1,3-dioxoisoindolin-2-yl)benzenesulphonamide], for which the inhibitory constant (Ki) is 4.9 ± 0.3 nM in experiment [1] and 159 ± 12 nM in experiment [2].
For the molecule `NS(=O)(=O)c1ccc(N2C(=O)c3c(Cl)c(Cl)c(Cl)c(Cl)c3C2=O)c(Br)c1` [Compound 13, 3-bromo-4-(4,5,6,7-tetrachloro-1,3-dioxoisoindolin-2-yl) benzenesulphonamide], the Ki in experiment [1] worked out at 2.4 ± 0.1 nM; in experiment [2] (setting [3]) it was 281 ± 15 nM.

The values above are taken from article PMC8308639, “Synthesis and Human Carbonic Anhydrase I, II, IX, and XII Inhibition Studies of Sulphonamides Incorporating Mono-, Bi- and Tricyclic Imide Moieties” (Pharmaceuticals, 2021).
